# Molecular target: human recombinant PDE5 (Homo sapiens, UniProt O76074)
# Assay: Inhibitory effect on cGMP-PDE (one-step assay, 8-[H3]-cGMP)
# Conditions: read-out: PDE5 IC50, in vitro
# Procedure: The compounds of structural formula (I) were tested for an ability to inhibit PDE5. The ability of a compound to inhibit PDE5 activity is related to the IC50 value for the compound, i.e., the concentration of inhibitor required for 50% inhibition of enzyme activity. The IC50 value for compounds of structural formula (I) were determined using recombinant human PDE5.
# cGMP-PDE activity of compounds of the present invention was measured using a one-step assay adapted from Wells et al., Biochim. Biophys. Acta, 384, 430 (1975). The reaction medium contained 50 mM Tris-HCl, pH 7.5, 5 mM magnesium acetate, 250 μg/ml 5′-Nucleotidase, 1 mM EGTA, and 0.15 μM 8-[H^3]-cGMP. Unless otherwise indicated, the enzyme used was a human recombinant PDE5 (ICOS Corp., Bothell, Wash.).
# Compounds of the invention were dissolved in DMSO finally present at 2% in the assay.
row,SMILES,IC50
1,CCOC(=O)c1cc(C)n2c1Cc1c([nH]c3ccccc13)C2c1ccc2c(c1)OCO2 (stereo not shown),20 nM
2,CCOC(=O)c1ccn2c1Cc1c([nH]c3ccccc13)C2c1ccccc1 (stereo not shown),80 nM
3,O=C(O)c1ccn2c1Cc1c([nH]c3ccccc13)C2c1ccc2occc2c1 (stereo not shown),10 nM
4,COc1ccc(C2c3[nH]c4ccccc4c3Cc3c(C(=O)NCc4ccc(OC)c(OC)c4)ccn32)cc1 (stereo not shown),110 nM
5,CCOC(=O)c1cc(C=O)n2c1Cc1c([nH]c3ccccc13)C2c1ccc2occc2c1 (stereo not shown),6.2 nM
6,CCOC(=O)c1cc(CC)n2c1Cc1c([nH]c3ccccc13)C2c1c(C)cc(OC)cc1C (stereo not shown),160 nM
7,CCOC(=O)c1ccn2c1Cc1c([nH]c3ccccc13)C2c1ccc2occc2c1 (stereo not shown),7.1 nM
8,COc1ccc(CNC(=O)c2ccn3c2Cc2c([nH]c4ccccc24)C3c2ccccc2)cc1OC (stereo not shown),200 nM
9,CCOC(=O)c1ccn2c1Cc1c([nH]c3ccccc13)C2c1ccc(OC)cc1 (stereo not shown),2.1 nM
10,COc1ccc(C2c3[nH]c4ccccc4c3Cc3c(C(=O)O)ccn32)cc1 (stereo not shown),10 nM
11,CCOC(=O)c1cc(CC)n2c1Cc1c([nH]c3ccccc13)C2c1ccc2c(c1)OCO2 (racemic),10 nM
12,CCOC(=O)c1ccn2c1Cc1c([nH]c3ccccc13)C2c1ccc(C)cc1 (stereo not shown),10 nM
13,CCOC(=O)c1cc2n(c1CC)C(c1ccc3c(c1)OCO3)c1[nH]c3ccccc3c1C2 (stereo not shown),460 nM
14,COc1ccc(C2c3[nH]c4ccccc4c3Cc3c(C(=O)NCCN4CCOCC4)ccn32)cc1 (stereo not shown),30 nM
15,CCOC(=O)c1cc(CN(C)C)n2c1Cc1c([nH]c3ccccc13)C2c1ccc2c(c1)OCO2 (stereo not shown),150 nM
16,CCOC(=O)c1cc2n(c1)C(c1ccc3c(c1)OCO3)c1[nH]c3ccccc3c1C2 (stereo not shown),40 nM
17,CCOC(=O)c1cc2n(c1)C(c1ccc(OC)cc1)c1[nH]c3ccccc3c1C2 (stereo not shown),60 nM
18,CCOC(=O)c1cc2n(c1)C(c1ccccc1)c1[nH]c3ccccc3c1C2 (stereo not shown),590 nM
19,CCOC(=O)c1ccn2c1Cc1c([nH]c3ccccc13)C2c1ccc(Cl)cc1 (stereo not shown),30 nM
20,CN1CCN(NC(=O)c2ccn3c2Cc2c([nH]c4ccccc24)C3c2ccc3c(c2)OCO3)CC1 (stereo not shown),40 nM
21,O=C(O)c1ccn2c1Cc1c([nH]c3ccccc13)C2c1ccc2c(c1)CCO2 (stereo not shown),4 nM
22,CCc1c(C(=O)NCc2ccccn2)cc2n1C(c1ccc3c(c1)OCO3)c1[nH]c3ccccc3c1C2 (stereo not shown),280 nM
